Broadly, the Cmax is the maximum level reached in the sampled fluid or tissue.

In US20140212487A1, “SOLID DISPERSION FORMULATION OF AN ANTIVIRAL COMPOUND” (priority 2013, published 2014) one finds Cmax data, which are given here for one compound.

This data set is described as follows: Pharmacokinetics after oral administration of tablets in beagle dogs. The format is in vivo. The conditions noted are these: pentagastrin pretreatment, read-out: Cmax, mean (RSD). The method, then:
A series of in vivo experiments were conducted to evaluate the potential benefit of the solid dispersion approach relative to conventional formulations, as well as to optimize the solid dispersion by identifying the most beneficial polymer type and relative polymer concentration within the dispersion.
Pentagastrin is a synthetic polypeptide that stimulates the secretion of gastric acid, pepsin, and intrinsic factor. […]

Structures are written as SMILES.

For `COC(=O)N[C@H](C(=O)N1CC2(CC2)C[C@H]1c1ncc(-c2ccc3c(c2)C(F)(F)c2cc(-c4ccc5nc([C@@H]6[C@H]7CC[C@H](C7)N6C(=O)[C@@H](NC(=O)OC)C(C)C)[nH]c5c4)ccc2-3)[nH]1)C(C)C.O=C(O)C(O)C(O)C(=O)O` [Crystalline D-tartrate], the Cmax is 665 nM.
